Reference: ChEMBL document CHEMBL5030540 (J Med Chem, 2021)

Test: Toxicity in C57BL/6 mouse model assessed as conditioned place aversion at 30 mg/kg, IP
Conditions: in vivo

CN(C(=O)Cc1ccc(Cl)c(Cl)c1)C1CCCCC1N1CCCC1.CS(=O)(=O)O (stereo unspecified)
Activity: Toxic
